Reference: PubChem BioAssay AID637 (SRMLSC, 2007)
The list shows a part of the results, in another mix than the full data. Activity calls are given as the source filed them. Rule as the data show it: active = inhibition above about 30%; inactive = the rest.

Assay: growth suppression of yeast trafficking mutant, preliminary HTS, modulators of trafficking downstream of Golgi apparatus project, 1536-format plate, OD 615 nm (AID 637)
Details: yeast transport mutant growth, absorbance 615 nm, 18 h; stronger effect = higher value
With `CP(=O)(Nc1ccc2c(c1)OCCO2)Oc1ccccc1` (stereo not given) the inhibition was inactive: 3.83%.
In the case of `CN(C)CCOC(=O)C(O)(c1ccccc1)C1CCCCC1` (stereo not given), the inhibition is reported as inactive: 2.95%.
In the case of `CP(=O)(Nc1ccccn1)Oc1ccccc1` (stereo not given), the inhibition is reported as inactive: 6.07%.
In the case of `CP(=S)(Nn1cnnc1)Oc1ccccc1` (stereo not given), the inhibition is reported as inactive: 0.48%.
For `Cc1ccc(C)c(NP(C)(=O)Oc2ccccc2)c1` (stereo not given), the inhibition was inactive: 7%.
